In patent US20240307362A1 (priority 2019, published 2024) one finds IC50 data, which are given here for three molecules.

The experiment relates to Ba/F3-EGFR-insSVD. Kind of experiment: Ba/F3 cell survival assay, EGFR-insSVD. In kind it is cell-based. The following applies: read-out: BA/F3 (insSVD) IC50; Table 5, compounds of WO 2016/120196. As to the method:
293T cells from ATCC were transfected with pBABEpuro expression constructs for WT EGFR or EGFR-insSVD and pCL-Eco packaging vector using Fugene-6 transfection reagent from Promega. Plates were incubated at 37° C. for 48 h. Retrovirus was harvested by filtering the media supernatant through a 0.45 μm filter.
Ba/F3 cells purchased from DSMZ were grown in RPMI+10% FBS+10 ng/mL IL-3 and infected with filtered retroviral supernatant at a 1:2 dilution. Polybrene was added to a concentration of 8 μg/mL, plates were spun for 90 min, and incubated overnight at 37° C. 2 μg/mL puromycin was added to the infected cells 24 h after infection and cells were continually grown in the presence of puromycin and 10 ng/mL IL-3. Following stably expressing Ba/F3 cell lines were generated: Ba/F3-EGFR-WT, Ba/F3-EGFR-insSVD, (Ba/F3-vector-control).
For cell survival assays, Ba/F3 cells were grown to a density of 1-2 million cells per mL, spun down and resuspended in media without IL-3, and replated at a concentration 200,000-500,000 cells per mL. The cells ectopically expressing WT EGFR or EGFR-insSVD were plated with 10 ng/mL Millipore Culture grade EGF. The cells ectopically expressing pBABEpuro empty vector were plated with 10 ng/mL IL-3.
2 days later, cells were plated in 50 μL in a 384 well plate at a concentration of 4000 cells per well for cells assayed in the absence of IL-3 and 2000 cells per well for cells assayed in the presence of IL-3. 100 nL of compound was added to each well using a 100 nL pin head, and plates were incubated at 37° C. for 48 h.
Cell viability was measured by adding 20 μL of Cell Titer-Glo Luminescent Cell Viability Reagent diluted 1:3 in PBS. Plates were sealed with Perkin Elmer Top-Seal, inverted several times to mix, and immediately centrifuged at 1000 rpm for 2 min. Plates were incubated in low light conditions for 8-10 min and luminescence was measured.
Turning to `O=C1NCCc2[nH]c(-c3ccncc3OCC3CC3)c(Nc3ccc(F)cc3)c21`, the IC50 is greater than 2000 nM.

For `O=C1NCCc2[nH]c(-c3ccncc3OCC(F)F)c(Nc3cccc(F)c3)c21`, the IC50 is greater than 2000 nM.

`COCCOc1cnccc1-c1[nH]c2c(c1Nc1ccc(F)c(F)c1)C(=O)NCC2`: the IC50 is greater than 2000 nM.
